From patent US20040049009A1, “Methods for improving the antagonistic/agonistic properties of peptidic antagonists/agonists of the corticotropin-releasing factor receptor (crfr)” (published 2004) come the findings set out here.

In this test the target is rat CRF receptor, type 1 (rat, UniProt P35353). The test can be described thus: SPA competition with 0.05 nM [125I-Tyr0]h/rCRF, HEK-293 membranes; 95% CI (1.3-1.9).

With SEEPPISLDLTFHLLREVLEMARAEQLAQQAHSNRKLMEII (ligand, not fully specified) [human/rat corticotropin-releasing factor], the IC50 (commonly the concentration needed to halve the response being measured) was found to be 1.6 nM.
